Experimental findings from ChEMBL document CHEMBL2417390 (J Med Chem, 2013) are described below.

For the assay, the species on record is Homo sapiens. In words: Selectivity factor, ratio of IC50 for human CYP11B1 to IC50 for human CYP11B2.

As for `C[C@]12CC[C@H](O)CC1=CC[C@@H]1[C@@H]2CC[C@]2(C)C(c3cccnc3)=CC[C@@H]12`, the Ratio IC50 worked out at 1.
